This test deals with PC-3 prostate cancer cell line. The experiment in a line: SRB assay cell viability, PC-3 prostate cancer cell line. It is filed as cell-based, human. The settings on record: read-out: SRB assay: 50% inhibition of cancer cell proliferation of sample concentration (IC50) of PC-3 prostate cancer cell line, Table II prints no unit, μM printed.

For the molecule `CC(C)CNc1cc2c(c3nsnc13)C(=O)c1ccccc1C2=O`, the IC50 turned out to be 0.74 µM.

The values above are taken from patent US8877748B2, “Heterocyclic fused anthraquinone derivatives, manufacturing method and pharmaceutical composition using thereof” (National Defense Medical Center, priority 2012, dated 2014).
